## Yeast mating assay 2: variants of the scFv Ab-91

All variants were tested on one target, the spike HR2 peptide PDVDLGDISGINAS (SARS-CoV-2).

Parent: Ab-91, a human scFv built as VL, a (GGGGS)3 linker, VH. Only the CDRs of the heavy chain vary.
VL: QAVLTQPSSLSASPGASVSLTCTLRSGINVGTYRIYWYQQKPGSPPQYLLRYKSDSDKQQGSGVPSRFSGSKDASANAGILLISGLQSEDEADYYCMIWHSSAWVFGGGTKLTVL
VH: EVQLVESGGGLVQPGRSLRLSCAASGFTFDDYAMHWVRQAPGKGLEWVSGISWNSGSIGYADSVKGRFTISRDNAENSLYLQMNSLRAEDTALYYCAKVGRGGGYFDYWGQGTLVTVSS

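Phage display of a naive human antibody library on the peptide gave the parent. Variants in AAYL51 differ from the parent at up to three CDR positions; double and triple changes were sampled at random. AlphaSeq pools MATa yeast showing the antibodies with MATalpha yeast showing the peptide. After mating in shaken culture at 30 °C for 16 h, diploids were selected and their barcode pairs sequenced. Read counts were normalised to the haploid input and turned into Kd by a linear fit to BCL2-family pairs of known affinity, for each replicate. There are three technical replicates.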

Each variant is given by its three heavy chain CDRs, as the data file delimits them; those of the parent are GFTFDDYAMH, GISWNSGSIGYADSVK, VGRGGGYFDY. Values are log10 of the apparent Kd in nM; lower means stronger binding. An entry "nd" has no value in the source: the pair was not observed among the diploids in that replicate. This suggests poor binding but is not conclusive. Parent in this assay: reference entry 1.86, copy in this library 0.88. Nonspecific signal, from three strains lacking the peptide, appeared in 21% of pairings of library AAYL51, centred on 4.54 (5% of these signals below 3.26); values are not corrected for it. The control count says in how many pairings with the empty strains this scFv gave a signal, with their mean in brackets.

CDR-H1,CDR-H2,CDR-H3,"replicates, log10 nM",control signals
GFTFDDYWMH,GISWNSGSCGYADSVK,VGPGGGYFDY,nd / nd / nd,1/9 (3.06)
GFTFDPYAMH,GISWNSGSIGYADSVK,VSRGKGYFDY,4.25 / 3.98 / 4.19,0/9
GFTFDDYAMH,GISWNSGSIGYADSVK,EGPAGGYFDY,nd / nd / nd,2/9 (4.33)
GFTFDDYAMH,GISWNSGSIGAADPLK,VGRGGGYFDY,4.51 / nd / nd,1/9 (3.95)
GFTFDDYAMH,GISWNSGSIGTADSVK,VGRGGVYFLY,nd / nd / nd,2/9 (4.63)
GFTFDDYIMH,GISWNSGSIGYADSVK,VGRRGGYFDD,nd / nd / nd,1/9 (3.84)
GFTFDDYAMH,WISWQFGSIGYADSVK,VGRGGGYFDY,5.38 / 5.20 / 5.37,3/9 (4.37)
GFFFDLYYMH,GISWNSGSIGYADSVK,VGRGGGYFDY,nd / nd / nd,1/9 (4.30)
GFTFDDYAMH,GISWNSGDIGYADSVK,VGRGPGYFRY,nd / 3.68 / nd,0/9
GFTFDDYAFH,VISWNSGSVGYADSVK,VGRGGGYFDY,nd / nd / 4.85,0/9
GFTFDDYAMH,GITWNSGSIGYADWVK,VGRGGGYFDY,3.37 / 3.41 / nd,0/9
GFTFDDYAMH,GISWNSGSIGYADSVS,VGRGGGYFDY,1.00 / 1.08 / 0.60,3/9 (4.54)
GFRFDDYAMH,GISWNSGSCGYADSVK,VGRGGGKFDY,2.71 / nd / nd,0/9
GFTFDKYAVH,GISWNSGSIGYADSVK,YGRGGGYFDY,nd / nd / nd,1/9 (4.43)
GFTFDDYAMH,GISWNSGSIGYADSPK,VGRTGLYFDY,nd / nd / nd,0/9
GFTFDDYCMH,GISWNSGSIPYADDVK,VGRGGGYFDY,4.61 / 5.49 / nd,3/9 (4.23)
GFTFDDYAMH,GIMWNSGSIGYADRVE,VGRGGGYFDY,nd / nd / nd,2/9 (3.18)
GFTFDDYAYH,GPSWNSGSIGYADSVK,VGRIGGYFDY,nd / nd / nd,0/9
GITFDCYAMH,GISWNSGSIGYADSVK,VGEGGGYFDY,nd / nd / nd,2/9 (5.12)
GFEFDDYAMH,GISWNSGSIGYADSVK,VGRSGGYFDY,3.73 / 5.23 / 4.76,2/9 (4.46)
GFTFDDVAMH,GISWNSGSIGYADTVK,VGRGGGYFDS,1.75 / 1.36 / 1.42,0/9
MFTFDDYAWH,GISWNSGSIGYADSVK,VMRGGGYFDY,4.69 / nd / 3.76,0/9
GFTFDWYAMH,GISWNSGSISPADSVK,VGRGGGYFDY,nd / nd / nd,3/9 (4.83)
GFTFDDYAMH,GISWNSGAIGYADSVK,VGRGGGYFRY,nd / nd / nd,1/9 (2.98)
GFTFDQYAMH,GISWNSGSIGYADVVK,VGRGGGYFDY,1.77 / nd / 2.22,0/9
GFTFDDYAYH,GISNNSGSIGYADSDK,VGRGGGYFDY,nd / nd / nd,1/9 (3.27)
GSTFDDYAMH,GISWNSGSINYADSVS,VGRGGGYFDY,nd / 5.32 / nd,2/9 (3.63)
GQTFLDYAMH,GISWNSGSLGYADSVK,VGRGGGYFDY,nd / nd / nd,2/9 (4.08)
GCTFDDYAMH,GISWNSGSDGYADSVK,VGRGGGYFDY,nd / nd / 3.91,0/9
KFCFDDYAMH,GISWNSGSIGYADSVK,VGRGGGYFDY,nd / nd / nd,0/9
GSTFDDYAMH,WISWNSGSIGYADSVN,VGRGGGYFDY,nd / nd / nd,1/9 (4.19)
GFTFDDYAMH,GISWNSGPIGYADSVK,HGRGGQYFDY,5.25 / 5.04 / nd,3/9 (4.61)
EFTFDDYAMH,IISWNSGSIGYADSVN,VGRGGGYFDY,nd / 5.94 / nd,2/9 (5.00)
GFTFDDYAMH,TISWNQGSIDYADSVK,VGRGGGYFDY,4.23 / nd / 4.33,6/9 (4.49)
GFTFDDYAMC,GISWNSGSIGYHVSVK,VGRGGGYFDY,nd / nd / nd,0/9
GLTFDDYAMH,GCSWNSGSIGYADSVK,VGRGGGYKDY,nd / 5.73 / nd,5/9 (4.95)
GFQFDDYAMH,GISWNSGSIWYADSVK,VGEGGGYFDY,nd / nd / 4.48,2/9 (3.64)
GFTFDDYAPH,GISWARGSIGYADSVK,VGRGGGYFDY,nd / 4.52 / nd,4/9 (4.47)
LFTFDDYAMH,GISWNSGSIGYADSVK,NGRGGGYFIY,4.71 / 5.60 / 4.48,7/9 (5.16)
GFTFIDYAMH,GISWNTGSIGQADSVK,VGRGGGYFDY,nd / nd / nd,0/9
GNTFDDYAMH,GISWNSGSCGYADSVC,VGRGGGYFDY,nd / nd / nd,1/9 (4.23)
GFTFDDYAMH,GISWNSGSISYADSVK,VGTGRGYFDY,nd / nd / nd,1/9 (4.57)
GFEFDDYAMH,EISWNSGSIGYADSVK,VGRGGGYFDV,4.41 / nd / nd,4/9 (4.99)
GWTFDDYAMH,GISWNSESIGYADSVC,VGRGGGYFDY,4.04 / nd / nd,1/9 (4.06)
GFTFDDYAMH,GISWNSKSIGYADSDK,VGKGGGYFDY,nd / nd / nd,0/9
NFTFDDYAMH,GISWNSGSIKYRDSVK,VGRGGGYFDY,nd / 2.98 / nd,0/9
GFTRDEYAMH,GISWNSGSIGYADYVK,VGRGGGYFDY,nd / 4.30 / nd,1/9 (4.44)

Repeated from above, the 6 best binders with a signal in all replicates:

| CDR-H1 | CDR-H2 | CDR-H3 | replicates, log10 nM | control signals |
|---|---|---|---|---|
| GFTFDDYAMH | GISWNSGSIGYADSVS | VGRGGGYFDY | 1.00 / 1.08 / 0.60 | 3/9 (4.54) |
| GFTFDDVAMH | GISWNSGSIGYADTVK | VGRGGGYFDS | 1.75 / 1.36 / 1.42 | 0/9 |
| GFTFDPYAMH | GISWNSGSIGYADSVK | VSRGKGYFDY | 4.25 / 3.98 / 4.19 | 0/9 |
| GFEFDDYAMH | GISWNSGSIGYADSVK | VGRSGGYFDY | 3.73 / 5.23 / 4.76 | 2/9 (4.46) |
| LFTFDDYAMH | GISWNSGSIGYADSVK | NGRGGGYFIY | 4.71 / 5.60 / 4.48 | 7/9 (5.16) |
| GFTFDDYAMH | WISWQFGSIGYADSVK | VGRGGGYFDY | 5.38 / 5.20 / 5.37 | 3/9 (4.37) |

Data: MIT Lincoln Laboratory AlphaSeq set, Engelhart et al. 2022, doi:10.1038/s41597-022-01779-4, as distributed in FLAb.